Results reported in patent US20230127046A1, “G9a INHIBITOR” (RIKEN, priority 2019, published 2023).

Amino acid sequences for entries named in this document (tags omitted). Residues count along the entry.
UniProt Q96KQ7, 785-1210 limits assumed: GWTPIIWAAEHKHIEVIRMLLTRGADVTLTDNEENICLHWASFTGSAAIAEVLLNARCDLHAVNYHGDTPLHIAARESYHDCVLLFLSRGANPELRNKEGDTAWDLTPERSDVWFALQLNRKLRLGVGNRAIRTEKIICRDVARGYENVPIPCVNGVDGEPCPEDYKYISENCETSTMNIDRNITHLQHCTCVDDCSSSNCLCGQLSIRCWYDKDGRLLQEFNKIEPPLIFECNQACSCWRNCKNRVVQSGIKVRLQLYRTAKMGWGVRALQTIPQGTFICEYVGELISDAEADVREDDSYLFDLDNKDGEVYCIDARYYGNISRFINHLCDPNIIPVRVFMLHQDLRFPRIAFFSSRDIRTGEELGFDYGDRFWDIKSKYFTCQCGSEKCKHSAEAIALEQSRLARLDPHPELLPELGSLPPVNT

Molecular target: recombinant human G9a protein (Homo sapiens, UniProt Q96KQ7)
Assay: G9a inhibitory activity test (ALPHA)
Details: read-out: Inhibitory activity (G9a IC50 value), biotinylated histone H3 peptide (1-21), SAM
Protocol: The G9a inhibitory activity of each compound was evaluated by measuring the enzymatic activity of G9a by amplified luminescence proximity homogeneous assay (ALPHA). First, 7.5 μL of a dilution of recombinant human G9a protein (BPS Bioscience Inc., #51001) diluted to 0.05 to 0.1 nM with a Tris buffer solution (50 mM Tris-HCl [pH 9.0], 50 mM NaCl, 0.01% Tween-20, 1 mM DTT), and 0.5 μL of the test compound were added to each well of a 384-well microplate (AlphaPlate-384 Shallow Well, PerkinElmer, Inc., #6008359), mixed by vortex, and incubated at room temperature for 10 minutes. 500 nM biotinylated histone H3 peptide (1-21) (AnaSpec Inc., #61702) and 150 μM SAM (Sigma-Aldrich Co. LLC, #A7007) were mixed at 1:1 in advance, and 2 μL of the mixture was added to each well, mixed by vortex, and then incubated at room temperature for 1 hour. AlphaLISA anti-H3K9me2 acceptor beads (PerkinElmer, Inc., #AL117C) and AlphaScreen streptavidin donor beads (PerkinElmer, Inc., #6760002B) were each diluted with an epigenetic buffer (PerkinElmer, Inc., AlphaLISA Epigenetics Buffer Kit #AL008C) to a final concentration of […] after addition. These dilutions were added to the reaction solution in the dark and incubated at room temperature for 1 hour in the dark. Then, measurement was performed using the EnSpire Alpha plate reader (PerkinElmer, Inc., Waltham, Mass., USA). […]

CCCCC(NC(=O)c1[nH]c2c(c1C)C(=O)CC(C)(C)C2)C(=O)Nc1ccc(OCCN(C)C)nc1 (stereo not shown)
IC50: 50 to 200 nM
